{
  "source": "patent US5908828A",
  "about": "“Synthetic peptide derivatives and the salts thereof” (Hoechst Japan Limited, priority 1994, dated 1999)",
  "test_system": "ALPase activity in MC3T3-E1 cells promoted by rh-BMP-2",
  "assay": "Assay of BMP inhibiting activity (BMP-2 antagonist-like activity): ALPase activity in cultured MC3T3-E1 cells",
  "type": "cell-based, mouse",
  "procedure": "BMP-2 antagonist-like activity of the present synthetic peptide derivatives was assayed by way of cultured MC3T3-E1 cells which were established from mouse calvaria having osteoblast-like property, by Kodama et al. (Kodama, H. et al. (1981) Jpn. J Oral. Biol., vol.23, p.899). The cultured MC3T3-E1 cells were prepared according to Takuwa et al. (Takuwa, Y. et al., (1991) Biochem.\nBiophys. Res. Comuni., vol. 174, p.96-101), 5×10^4 cells/cm^2of the cultured cells in serum-free α-MEM culture broth containing serum albumin were treated with various concentrations of synthetic peptide derivatives of this invention and recombinant human BMP-2 (rh-BMP-2) for 2 days so as to assay alkaline phosphatase (ALPase) activity in the cells by colorimetry on p-nitrophenyl phosphate. ALPase is often used as an indicator enzyme for differentiation and maturity of osteoblasts and chondrocytes (Pfeilschifter, J., et al., Endocrinology (1987), vol. 121, p212-218; Rodan, G. A., et al., calcium regulating hormones and bone metabolism, Elsevir Science Publishers B.V., (1992), p 183-196). […]",
  "data": [
    {"substance": "rh-BMP-2: recombinant human bone morphogenetic protein 2, used as the stimulus of ALPase activity", "values": [
      {"measurement": "increase of ALPase activity in MC3T3-E1 cells in comparison with a control group", "setting": "rh-BMP-2 5 ng/ml", "result": 3, "unit": "folds"},
      {"measurement": "ALPase activity", "setting": "rh-BMP-2 5 ng/ml alone, MC3T3-E1 cells, 2 days, mean ± SD, n = 4", "result": "892 ± 52", "unit": "pmol/min"}
    ]}
  ]
}
